Experimental data published in publication PMC5956019, “A rapid solution-based method for determining the affinity of heroin hapten-induced antibodies to heroin, its metabolites, and other opioids” (Analytical and Bioanalytical Chemistry, 2018).

Columns and labels:
[1] = system: 6-AmHap-Abs; test: Heterologous competition ELISA; type: binding, mouse; conditions: read-out: Competition ELISA Heterologous, IC50
[2] = system: 6-AmHap-Abs; conditions: read-out: Competition ELISA Homologous, IC50; ref Sulima et al [3]; cited from earlier work
[3] = cited from earlier work
[4] = system: serum esterases; test: Heroin degradation in buffer and in pre-immune and post-immune sera (UPLC/MS/MS)

For 3,6-diacetylmorphine, the IC50 [1] is listed as 11.1 nM, the IC50 [2] is listed as 1270 nM and the t1/2 ([3]; degradation of heroin in humans, Fig. 1a) is listed as 3 to 4 min. The “half-life (t1/2) in serum” value ([3]; in serum) was 3 to 4 min, the “heroin degradation in buffer alone” value ([4]; DPBS, absence of serum, 3 h, RT, 5, 10, 20, or 4000 nM heroin) was “no heroin degradation was observed” and the “% Heroin” value ([4]; dilute post-immune serum with esterase inhibitors BNPP and iso-OMPA, 4000 nM heroin, 1 h) was 100%. The t1/2 ([4]; dilute post-immune serum with esterase inhibitors, 4000 nM heroin) was “undefined”, the “% Heroin” value ([4]; dilute pre-immune serum (1:200), after 1 h, regardless of starting heroin concentration) was 27.7 ± 8.0% and the “% Heroin” value ([4]; dilute pre-immune serum (1:200), after 3 h, regardless of starting heroin concentration) was 4.3 ± 2.5%. For the same substance, the “% Heroin” value ([4]; dilute pre-immune serum with esterase inhibitors BNPP and iso-OMPA, 4000 nM heroin, 1 h) was 91.76 ± 8.64%, the t1/2 ([4]; dilute pre-immune serum with esterase inhibitors, 4000 nM heroin) was “undefined” and the “heroin degradation in post-immune serum” value ([4]; post-immune serum (~10 nM 6-AmHap binding sites), starting heroin less than or equal to 10 nM, 3 h) was “No significant degradation”. For the same substance, the t1/2 ([4]; post-immune serum, 5 nM heroin) was “undefined”, the t1/2 ([4]; post-immune serum, 10 nM heroin) was “undefined” and the t1/2 ([4]; post-immune serum, 20 nM heroin) was “undefined”. The “% Heroin” value ([4]; post-immune serum, 20 nM heroin, after 1 h) was 84.1 ± 3.4%, the “% Heroin” value ([4]; post-immune serum, 20 nM heroin, after 3 h) was 56.1 ± 3.3% and the t1/2 ([4]; post-immune serum, 4000 nM heroin, 99% confidence interval) was 31.6 to 56.8 min. The “heroin degradation in post-immune serum” value ([4]; post-immune serum, 4000 nM heroin, after 1 h) was “extensive degradation”, the t1/2 ([4]; pre-immune serum, 5 nM heroin, 99% confidence interval) was 25 to 32.5 min and the t1/2 ([4]; pre-immune serum, 10 nM heroin, 99% confidence interval) was 33.3 to 49.9 min. The t1/2 ([4]; pre-immune serum, 20 nM heroin, 99% confidence interval) was 26.9 to 33.4 min and the t1/2 ([4]; pre-immune serum, 4000 nM heroin, 99% confidence interval) was 18.3 to 32.7 min.

Like-named read-outs stand apart in the source and are kept apart here.
